Assay results published in PubChem BioAssay (Tox21).
“And” between values parts separate entries of the source, which are not always exact repeats. Equal values may be shown once. The list shows a part of the results, in another mix than the full data. Inconclusive results are not listed. The source made the active and inactive calls. The call rests on the fitted dose curve; in most records, active means well fitted cell-killing curve with a large enough effect in the repeat runs; inconclusive means weak or mixed curves, or effect the other way; inactive means flat fitted curve, though single readings scatter.

experiment: qHTS RealTime-Glo MT Cell Viability Assay in HEK293 cells - 40 hour (AID 1224874); conditions: RealTime-Glo luminescence, hits give low values; further: nearly all actives have a fitted effect of over 50% in size
Excerpt: U.S. Tox21 Program National Center for Advancing Translational Sciences [NCATS] NIH Chemical Genomics Center [NCGC] U.S. Environmental Protection Agency [EPA] National Institutes of Environmental Health Sciences [NIEHS] National Toxicology Program [NTP] U.S. Food and Drug Administration [FDA] Tox21 Assay Overview: Measure of cell viability is critical in the cell-base assay. Analysis of cell viability is necessary for the characterization of cell responses to cytotoxic drugs and environmental stress. A RealTime-Glo MT Cell Viability Assay to monitor cell viability in real time of continues cell culture during 40 hours of compound treatment was used to screen Tox21 10K library compounds in Hek293 cells. The RealTime-Glo MT Cell Viability Assay is a nonlytic, homogeneous, bioluminescent method to measure cell viability in real time using a simple, plate-based method. The assay involves adding NanoLuc luciferase and a cell-permeant prosubstrate to cells in culture. Viable cells reduce the proprietary prosubstrate to generate a substrate for NanoLuc luciferase. This substrate diffuses from cells into the surrounding culture medium, where it is rapidly used by the NanoLuc Enzyme to produce a luminescent signal. The signal correlates with the number of viable cells, making the assay well suited for cytotoxicity studies.
Tox21 Assay Protocol Summary: The mixture of Hek293 cell suspension and reagents were dispensed at 600cells/6 ul/well in 1536-well tissue culture treated black solid bottom plates using a Multidrop dispenser. After the assay plates were incubated at a 37 C/5% CO2 incubator for 5 hours, 23 nL of compounds dissolved in DMSO, positive and negative controls was transferred to the assay plate by a pintool work station. The plates were incubated at 37 C for 40 hours. The luminescence intensity were measured at 0h, 8h, 16h, 24h, 32h and 40h time points using ViewLux plate reader during compound treatment.
On the % scale 0 is the no-effect control and ±100 the full control effect.

Q: Which max response does the source give for `CCOP(=O)(CC)Oc1ccc([N+](=O)[O-])cc1` (configuration not stated) here?
A: Its max response is inactive: -11.7%.

Q: Which max response does the source give for `Cc1ccc([N+](=O)[O-])cc1[N+](=O)[O-]` here?
A: The max response was inactive: -0.0089% and inactive: 3.62%.

Q: Which max response does the source give for `CC(C)N(CCO)C(C)C` here?
A: Its max response is inactive: -7.13%.

Q: For `N#CBr`, which max response is on record?
A: Its max response is inactive: 11.5%.

Q: Which max response does the source give for `COc1ccc([N+](=O)[O-])cc1[N+](=O)[O-]` here?
A: The max response was inactive: 1.97%.

Q: Which max response does the source give for `CCN(CC)CCCl` here?
A: The max response was inactive: 2.97%.

Q: With `CCOP(=O)(CC)OCC` as the molecule, how does the max response read?
A: The max response was inactive: 7.05%.

Q: For `OCCSCCO`, which max response is on record?
A: Its max response is inactive: -3.61% and inactive: 3.35%.

Q: Which max response does the source give for `C/C1=C2N=C(/C=C3N=C(/C(C)=C4\[N-][C@@](C)([C@@H]5N=C1[C@](C)(CCC(=O)NC[C@@H](C)OP(=O)([O-])O[C@H]1[C@@H](O)[C@@H](n6cnc7cc(C)c(C)cc76)O[C@@H]1CO)[C@H]5CC(N)=O)[C@@](C)(CC(N)=O)[C@@H]4CCC(N)=O)[C@@](C)(CC(N)=O)[C@@H]\3CCC(N)=O)C(C)(C)[C@@H]/2CCC(N)=O.[C-]#N.[Co+3]` here?
A: Its max response is inactive: -5.82%.

Q: Which max response does the source give for `O=[N+]([O-])OCC(CO[N+](=O)[O-])(CO[N+](=O)[O-])CO[N+](=O)[O-]` here?
A: The max response was inactive: 3.21%.

Q: With `CN(C)CCCl` as the molecule, how does the max response read?
A: Its max response is inactive: -1.13%.

Q: Which max response does the source give for `N=C(N)N[N+](=O)[O-]` here?
A: Its max response is inactive: -4.95%.

Q: Which max response does the source give for `[NH4+].[O-][Cl+3]([O-])([O-])[O-]` here?
A: Its max response is inactive: 0.217% and inactive: 2.31%.

Q: For `COP(C)(=O)OC`, which max response is on record?
A: The max response was inactive: 0.147% and inactive: -0.807%.

Q: With `CC(C)OP(C)(=O)OC(C)C` as the molecule, how does the max response read?
A: The max response was inactive: 14.7%.

Q: Which max response does the source give for `CP(=O)(O)OCCC[Si](O)(O)O` here?
A: The max response was inactive: -0.0233%.

Q: With `O=[N+]([O-])[O-].[NH4+]` as the molecule, how does the max response read?
A: Its max response is inactive: 2.89% and inactive: 3.5%.
